Screening data: PubChem BioAssay, several laboratories
Hits are enriched below; roughly 4.2% of the tested compounds scored in any of these assays.
MC4R antag cAMP = MC4R antagonists of cAMP signaling, primary screen, cell-based, TR-FRET, antagonist arm of biased-ligand search; inhibition, % at 6.5 µM; actives 0.48% (n = 360,000); MC4R-expressing cells, MTII-stimulated cAMP, LANCE TR-FRET;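 active = inhibition above its plate's cutoff, the mean of tested wells on that plate plus 3 SD, cut at about 29% in these data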
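Assay system: U2OS-MC4R stable cell line; Also added: Melanotan II; Technique: Eu-cAMP/anti-cAMP TR-FRET, emission 671 nm; Times: 30-min compound, 1-h challenge, 1-h detection, room temperature.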
ALR H2O2 inh = human ALR oxidase inhibition via reduced H2O2. P55789. purified ALR, DTT oxidation, H2O2 HRP-luminol luminescence. inhibition, % (no concentration beside the values). 290,000 tested, 3.8% active. AID 485317;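 active = mean and each replicate at 75% or more; inconclusive = only one of the two met; inactive = neither met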;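 also: stock transfer was 7.5 nL into about 7.5 µL; 0% = neutral wells and 100% = wells with inactivated enzyme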
UUG fidelity = alters start codon recognition fidelity in yeast | S. cerevisiae UUG-firefly luciferase reporter, luminescence/redox ratio | activity score, % at 18.7 µM | hit rate 0.13% among 350,000 | AID 602363;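 active means replicate mean at a twofold rise or more, about +100% in these data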;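 further: firefly luciferase made from a UUG start codon reports start codon fidelity; reporter light over untreated wells divided by growth signal over untreated wells; some hits fall short of that in this replicate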
HDAC3 inhib = HDAC3 deacetylase inhibitors, primary screen, biochemical, fluorescence, cell-free homogeneous; Histone deacetylase 3 (Homo sapiens), O15379; recombinant HDAC3, fluorogenic peptide/trypsin coupled; inhibition, % at 8.3 µM; actives 0.15% (n = 320,000); in the data active = inhibition above about 26%, passing the limit was not always enough; inconclusive = no clear call, values can overlap the other calls
MC4R barr agon = MC4R agonists recruiting beta-arrestin, primary screen, cell-based, luminescence, agonist arm of biased-ligand search; Melanocortin receptor 4 (Homo sapiens), P32245; U2OS MC4R beta-arrestin complementation; percent of melanotan II response, DMSO zero; activation, % at 8.9 µM; actives 0.98% (n = 360,000);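 active = activation above a per-plate cutoff, the mean activation of sample wells on that plate plus 3 SD, cut at about 8% in these data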
NALP1 yeast inh = NALP1 inflammasome inhibitors in reconstituted yeast, colorimetric, S. cerevisiae, triplicate retest; S. cerevisiae NALP1/ASC/caspase-1 growth, X-gal OD620, 72 h; inhibition, % at 10 µM; actives 0.61% (n = 280,000); AID 2071, 2009; in the data active = inhibition mostly above about 24%, no sharp cut-off; inactive = mostly below about 32%
U2OS cAMP counter = nonselective cAMP signaling inhibitors, parental cells, counter-screen for MC4R biased antagonist project, cell-based, TR-FRET, U2OS, forskolin, triplicate | AID 602193, 2012 | shares compounds with MC4R antag cAMP | LANCE TR-FRET | actives 26% (n = 1,600) | inhibition, % at 6.5 µM;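 active = mean inhibition over triplicates above the low-control well mean plus 3 SD, set per campaign, cut at about 13% in these data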;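 also: signal is single emission at 671 nm which falls as cellular cAMP rises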
MC4R antag conf = MC4R cAMP antagonists, retest, confirmation, cell-based, TR-FRET | inhibition, % at 6.5 µM | MC4R-expressing cells, MTII-stimulated cAMP | AID 602195, 2012 | actives 27% (n = 1,600) | shares compounds with MC4R antag cAMP; in the data active = inhibition above about 29%
Numbers stand for hits; - = inactive; ? = inconclusive; . = no result.

Protein sequences, listed by entry. Tags and fused reporters are not part of them.
Melanocortin receptor 4 (Homo sapiens), P32245, UniProt P32245, whole entry, looked up: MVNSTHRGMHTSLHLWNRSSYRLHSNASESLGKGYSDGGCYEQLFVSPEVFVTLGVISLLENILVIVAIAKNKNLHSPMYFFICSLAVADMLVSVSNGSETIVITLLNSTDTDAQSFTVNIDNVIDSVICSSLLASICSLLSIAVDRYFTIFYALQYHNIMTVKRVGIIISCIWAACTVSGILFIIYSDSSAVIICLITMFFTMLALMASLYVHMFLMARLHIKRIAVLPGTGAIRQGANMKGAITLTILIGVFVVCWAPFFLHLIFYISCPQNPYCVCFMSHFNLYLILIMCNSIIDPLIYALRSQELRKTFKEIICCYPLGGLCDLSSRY

SMILES	MC4R antag cAMP	ALR H2O2 inh	UUG fidelity	HDAC3 inhib	MC4R barr agon	NALP1 yeast inh	U2OS cAMP counter	MC4R antag conf
C[C@H]1CN([C@@H](C)CO)C(=O)Cc2cc(NS(=O)(=O)c3ccc(F)cc3)ccc2O[C@@H]1CN(C)CC1CCCCC1	.	.	-	.	.	.	.	.
N=c1c2c(-c3ccccc3)c(-c3ccccc3)n(Cc3ccccc3)c2ncn1CCCn1ccnc1	29	.	-	-	-	30	-	35
CCCCn1cnc2c(c(-c3ccccc3)c(-c3ccccc3)n2Cc2ccco2)c1=N	-	-	-	-	-	-	.	.
COc1ccc(NC(=O)CCC(=O)NCCO)cc1	37	-	.	-	-	-	-	-
O=C(Nc1nnc(C2CCCC2)s1)C1CCN(S(=O)(=O)c2ccc(Cl)cc2)CC1	30	-	-	-	-	-	-	-
Cc1ccc(S(=O)(=O)N2CCC(C(=O)Nc3nnc(C4CCCC4)s3)CC2)cc1	-	-	-	-	-	-	.	.
O=C(C[C@H]1C[C@H]2c3cc(NC(=O)NC4CCCC4)ccc3O[C@H]2[C@H](CO)O1)NCc1ccc(Cl)cc1	.	.	-	.	.	.	.	.
C[C@H]1CN([C@@H](C)CO)C(=O)Cc2cc(NC(=O)CCC(F)(F)F)ccc2O[C@H]1CN(C)S(=O)(=O)c1ccccc1	.	.	-	.	.	.	.	.
CC1CCC2(CC1)NC(=O)N(CC(=O)NC(=O)Nc1ccc3c(c1)OCCO3)C2=O (stereo not drawn)	29	.	-	-	-	-	-	-
Cc1ccc(Sc2cnc(N)nc2C)cc1	37	-	.	-	-	-	-	-
CCC(C)(C)NC(=O)C(c1cccc(OC)c1OC)N(Cc1ccc(OC)cc1)C(=O)CCC(=O)Nc1cc(C)on1 (stereo not drawn)	-	-	-	-	-	-	.	.
COc1cccc(C(C(=O)NC(C)(C)C)N(Cc2ccc(F)cc2)C(=O)CCC(=O)Nc2cc(C)on2)c1OC (stereo not drawn)	30	.	-	-	-	-	-	-
C[C@H]1CN([C@@H](C)CO)C(=O)c2cc(NC(=O)c3ccncc3)ccc2O[C@@H]1CN(C)C(=O)Nc1ccc(C(F)(F)F)cc1	.	.	-	.	.	.	.	.
Cc1c(N=C2SCC(=O)N2/N=C\c2ccc(Br)cc2)c(=O)n(-c2ccccc2)n1C	31	92	-	-	-	-	-	-
Cc1c(N=C2SCC(=O)N2/N=C/c2ccccc2Cl)c(=O)n(-c2ccccc2)n1C	-	-	-	-	-	-	.	.
C[C@@H]1CCCCO[C@H](CN(C)S(=O)(=O)c2ccccc2)[C@@H](C)CN([C@@H](C)CO)C(=O)c2cc(NC(=O)NC3CCCCC3)ccc2O1	.	.	-	.	.	.	.	.
CCN(CC)c1ccc2c(c1)oc(=O)c1c(Cl)cc(=O)oc12	30	97	-	-	-	-	-	-
CCn1c2ccccc2c2cc(/C=N/NC(=O)c3ccc(O)cc3)ccc21	29	.	.	.	-	-	-	-
COc1ccc(/C=N/NC(=O)CCn2c3ccccc3c3ccccc32)cc1OC	29	-	.	?	-	-	-	-
O=C(C[C@@H]1C[C@H]2c3cc(NC(=O)c4ccc5c(c4)OCO5)ccc3O[C@H]2[C@@H](CO)O1)NCc1cccc(F)c1	.	.	-	.	.	.	.	.
C[C@H](O)C#Cc1cnc2c(c1)C(=O)N([C@H](C)CO)C[C@H](C)[C@H](CN(C)C(=O)CC1CC1)O2	.	.	-	.	.	.	.	.
Cc1cc(Oc2ccc(C)c(Cl)c2)nc(SCC(=O)c2ccccc2)n1	45	-	-	-	-	-	23	47
